Assay results: PubChem BioAssay AID624268 (The Scripps Research Institute Molecular Screening Center, 2012)
This is a selection; strong and weak results do not stand in their true shares. Activity calls are given as the source filed them.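 How the source made its calls: active means inhibition above a per-plate cutoff of the control wells' mean inhibition plus 3 SD (cut at about 5.5% in these data); inactive means the rest.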

What follows are molecules tested on methionyl-tRNA synthetase (Trypanosoma brucei brucei) (assay: inhibition of trypanosome methionyl-tRNA synthetase – biochemical, luminescence, primary screen (AID 624268;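 further: 0% = DMSO wells median and 100% = median of wells with control inhibitor compound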)). Conditions: purified T. brucei MetRS, ATP depletion, Kinase-Glo luminescence; at 11.9 µM; active compounds read high.
Outline: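 Material: parasite MetRS enzyme / Replication: singlicate, one well per compound / Signal: luminescence of leftover ATP / Schedule: 2 h aminoacylation at 25 °C after 15 min preincubation / Medium: HEPES-MgCl2-KCl buffer plus DTT, spermine, BSA, pyrophosphatase / Doses: 11.9 µM single point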

| Structure (SMILES) | inhibition |
| --- | --- |
| CCC(=O)N(c1ccccc1)C1(COC)CCN(CCn2nnn(CC)c2=O)CC1 | inactive: -0.01% |
| CCC(=O)N(c1ccccc1)C1(COC)CCN(CCc2cccs2)CC1 | inactive: -1.73% |
